Experimental data taken from PMC9032570, “Flavonoids and Phenols, the Potential Anti-Diabetic Compounds from Bauhinia strychnifolia Craib. Stem” (Molecules, 2022).

Amino acid sequences for entries named in this document (tags omitted). A change or cut given only in a name is not applied to a line headed by its entry.
UniProt P22411: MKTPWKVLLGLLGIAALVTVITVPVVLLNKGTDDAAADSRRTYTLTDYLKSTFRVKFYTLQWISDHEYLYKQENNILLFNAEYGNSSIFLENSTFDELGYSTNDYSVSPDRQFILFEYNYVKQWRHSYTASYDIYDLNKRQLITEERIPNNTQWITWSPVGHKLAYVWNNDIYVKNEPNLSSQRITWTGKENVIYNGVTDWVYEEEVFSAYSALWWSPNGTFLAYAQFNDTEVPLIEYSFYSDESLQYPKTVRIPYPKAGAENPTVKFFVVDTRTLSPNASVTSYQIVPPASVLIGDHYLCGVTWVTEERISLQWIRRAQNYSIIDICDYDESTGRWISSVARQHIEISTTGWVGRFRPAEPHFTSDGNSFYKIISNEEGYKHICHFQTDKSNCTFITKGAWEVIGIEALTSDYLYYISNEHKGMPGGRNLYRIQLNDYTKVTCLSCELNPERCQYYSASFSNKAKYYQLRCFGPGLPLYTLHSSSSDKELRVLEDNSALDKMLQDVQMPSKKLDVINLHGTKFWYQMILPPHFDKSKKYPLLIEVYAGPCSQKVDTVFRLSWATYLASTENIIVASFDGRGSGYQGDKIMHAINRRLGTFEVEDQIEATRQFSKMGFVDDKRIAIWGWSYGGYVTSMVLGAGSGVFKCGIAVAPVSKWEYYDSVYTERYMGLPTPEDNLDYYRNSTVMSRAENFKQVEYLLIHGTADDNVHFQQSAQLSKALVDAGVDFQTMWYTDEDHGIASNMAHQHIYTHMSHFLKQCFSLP

Target: T1, dipeptidyl peptidase-IV (DPP-IV) from porcine kidney (Sus scrofa, UniProt P22411)
T1 construct: purchased Sigma Aldrich Inc. (St. Louis, MO. USA); host or cells: porcine kidney (tissue-derived enzyme)
Assay: Dipeptidyl peptidase-IV (DPP-IV) inhibitory assay (GP-p-NA substrate)
Format: biochemical
Excerpt: Folin–Ciocalteu reagent was bought from Merck (Darmstadt, Germany). Fetal bovine serum (FBS), penicillin-streptomycin, Dulbecco’s Modified Eagle Medium, high glucose (DMEM, high glucose), Roswell Park Memorial Institute (RPMI) 1640 medium, trypsin-EDTA, trypan blue dyes, and 3-(4,5-dimethylthiazol-2-yl)-2,5 diphenyltetrazolium bromide (MTT) were obtained from Thermo Fisher Scientific (Waltham, CA, USA). Ethanol, methanol, hexane, dichloromethane, ethyl acetate, and acetone (as analytical grades) were purchased from Labscan Asia Co., Bangkok, Thailand.
The DPP-IV inhibition activities of crude extract, partitioned fractions, and isolated pure compounds were investigated, following the procedure of Van et al. (2009) and Al-Masri et al. (2009), with some modifications. Concisely, 40 µL of each sample diluted in 50 mM Tris-HCl buffer, pH 8.0 (at final concentration 50 ug/mL), was pre-incubated with 30 µL of 0.05 U/mL of DPP-IV enzyme at 37 °C. […] Then, the reaction was terminated with 30 µL of 25% acetic acid, and the absorbance at 405 nm was suddenly measured by a microplate reader (DTX880 Multimode Detector, Beckman Coulter®, Wein, Austria). The percentage of inhibition was calculated, following the formula: [(Acontrol − Asample)/Acontrol] × 100, where Acontrol and Asample were the absorbances of reaction with and without sample, respectively. […]

Compound: CC[C@H](C)[C@H](N)C(=O)N1CCC[C@H]1C(=O)N[C@H](C(=O)O)[C@@H](C)CC [Diprotin A, diprotin A, reference compound]
- IC50: 3.34 µM
- IC50 (molar value, in parentheses in Table 3): 3.26 µM

Where two headings read alike, the source gives them in different places.
